Paper PMC7064328, “Evaluation of Maternal, Embryo, and Placental Effects in CD-1 Mice following Gestational Exposure to Perfluorooctanoic Acid (PFOA) or Hexafluoropropylene Oxide Dimer Acid (HFPO-DA or GenX)” (Environmental Health Perspectives, 2020)
“And” between values parts separate entries of the source, which are not always exact repeats. Equal entries are not always repeated.

Columns and labels:
Pregnant CD-1 mice = assay: Maternal indices: dam body weight, gestational weight gain, liver and kidney weight after daily oral gavage E1.5 to E11.5 or E17.5; format: in vivo, mouse (CD-1); details: for Relative GWG, E11.5 estimate (95% CI) / Relative GWG, E17.5 Estimate (95% CI) / Relative GWG, E11.5 Estimate (95% CI) relative to VC: adjusted for litter size
Description: Naïve female CD-1 mice between 7.5 and 15.5 wk of age from the NIEHS colony were bred in-house on a single night, and copulatory plug–positive females were identified on embryonic day (E) 0.5. Pregnant dams were singly housed in ventilated polypropylene cages and received nesting materials, National Institutes of Health (NIH)-31 diet (Zeigler Bros., Inc.) and reverse osmosis deionized (RODI) water ad libitum. Animals were housed in humidity- and temperature-controlled rooms with 25°C and 45–60% average humidity and standard 12-h light cycles. All animal procedures were approved by the NIEHS Animal Care and Use Committee (ASP #2017-0022).
PFOA ammonium salt (CAS #3825-26-1) was purchased from Millipore Sigma, and GenX [ammonium 2,3,3,3-tetrafluoro-2-(heptafluoropropoxy)propanoate; CAS# 62,037-80-3] was purchased from SynQuest Laboratories. PFOA and GenX dosing solutions were prepared in RODI water and administered to mice once daily via oral gavage. Daily doses were administered between 0700 and 0800 hours and adjusted to the BW of the mouse based on the previous day’s weight at a volume of 0.01mL/g BW. […] The dose of 1mg/kg BW/d PFOA, used in the mouse developmental toxicity study of [Lau et al. 2006], provided a lowest effect dose that was used to set the reference dose within the U.S. EPA’s drinking water lifetime health advisory level (HAL) of 70 ppt PFOA ([U.S. EPA 2016]). Given that the state of North Carolina has a provisional health goal of 140 ppt GenX (double the PFOA HAL), we selected doses of GenX ( 10mg/kg BW/d , high dose; 2mg/kg BW/d , low dose) to mirror doses of PFOA previously used in HAL decision-making.
This experiment was conducted over two blocks (Block 1 and Block 2) to achieve a total of n=11–13 litters per treatment group and sacrifice time point (E11.5 and E17.5). The experimental design of the second block was identical to the first block of the study, and experimental methods were similar but expanded upon to include more rigorous and detailed measurements. Copulatory plug–positive mice (E0.5) were weighed to obtain a baseline BW and placed into one of five groups. Once all mice were assigned to groups, mean BWs were calculated, and a few animals were reassigned so that mean BWs in each group were similar. This was done to avoid confounding effects of baseline BW. Treatment groups were then randomly assigned a color by using a random sequence generator. Experimenters and dosing technicians were blinded to the treatment group to which the color groups corresponded throughout the duration of the study, including at necropsy. Randomly assigned treatment groups included in each block: vehicle control (deionized water only), 1mg/kg BW/d PFOA, 5mg/kg BW/d PFOA, 2mg/kg BW/d GenX, and 10mg/kg BW/d GenX. Pregnant dams were dosed via oral gavage from E1.5 to E11.5 or from E1.5 to E17.5. The sacrifice time points were selected a priori to examine effects of gestational PFOA or GenX exposure on embryo and placental growth prior to placental maturation (E11.5) as well as after full placental maturation (E17.5) ([Watson and Cross 2005]). The E11.5 early-gestation time point was selected because it overlaps a critical period of placental development in the mouse where the placenta undergoes vascularization with the uterine wall and chorioallantoic branching of vessels begins ([Watson and Cross 2005]). The E17.5 late-gestation time point was selected so that embryo weight changes that may be related to treatment would be evident.
On the day of necropsy, dams received daily oral gavage between 0700 and 0800 hours and were weighed and then euthanized humanely by swift decapitation, and serum was collected. In Block 1, necropsies were completed from 0800 to 1600 hours, and in Block 2, necropsies were completed from 0800 to 1200 hours. Serum from dams euthanized in Block 1 was snap frozen for internal dosimetry analyses. Serum and urine from Block 2 dams were reserved for clinical chemistry analyses. […]

embryo–placenta unit = assay: Embryo/placental growth metrics (mixed-effect models); format: in vivo, mouse (CD-1)
Source text: From each uterus, first, viable embryos and their matched placentas were collected in succession within a horn and immediately snap frozen ( n=2–5 per litter ), and subsequent embryos were collected for growth measurements ( n=2–11 per litter ). Additional placentas were collected and placed in 4% paraformaldehyde (PFA) for histological analysis (Block 2 only). Amniotic fluid was collected by needle aspiration from litters euthanized at E11.5 and snap frozen in liquid nitrogen. Embryo livers were collected from litters euthanized at E17.5 and snap frozen in liquid nitrogen. Dam livers were weighed, a portion of the left lateral lobe was placed in 4% PFA for histology, and another portion of the same lobe was snap frozen in liquid nitrogen. A third liver section was obtained from Block 2 dams and fixed in McDowell and Trump’s fixative for electron microscopy (EM). Gross lesions were collected when observed and placed in 4% PFA for histology. Dam kidneys were removed, a cross section was prepared from the right kidney, a longitudinal section was prepared from the left kidney, and both sections were fixed in 4% PFA for histological analysis.
Gross observations were recorded at necropsy. Embryo sex was determined by polymerase chain reaction (PCR) amplification of the Sry gene (forward, 5′-[…]-3′, and reverse, 3′-[…]-5′) using a snipped portion of tissue (TransnetYX®, Inc.). Embryos and their placentas were weighed separately as wet tissue. Images of embryos were obtained on a Leica Z16 APO imaging scope, and embryo length was measured as snout-to-rump distance using FIJI ([Schindelin et al. 2012]) and Zen 2 Blue (Zeiss).
Embryo and placental metrics were analyzed using mixed-effect models and included a priori fixed effects of treatment group and litter size and a random-effects term for the dam using the lme4 package. Embryo and placental metrics included embryo weight, embryo length, placental weight, and embryo:placenta weight ratios, a meaningful predictor of fetal birth outcomes in humans ([Hayward et al. 2016]). To account for potential introduction of random effects, the study block (Block 1 or Block 2) and experimenter handling of embryo/placental tissues (Experimenter A or Experimenter B) were included as additional random effects. Models were fit in a stepwise procedure for random effects, and final models included treatment group and litter size as fixed effects using the lmerTest package ([Kuznetsova et al. 2017]). All final models included dam as a random effect but were allowed to vary in the inclusion of experimenter and experimental block random effects based on likelihood ratio test results. Point estimates and 95% CIs were determined from the final model using the Wald method. The number of individual observations for each outcome (embryo weight, placenta weight, and embryo:placenta weight ratio) and the number of litters evaluated in the mixed-effect models are shown in Table S1.

SMILES: N.O=C(O)C(F)(OC(F)(F)C(F)(F)C(F)(F)F)C(F)(F)F (stereo not drawn) [GenX, ammonium 2,3,3,3-tetrafluoro-2-(heptafluoropropoxy)propanoate]
- Relative kidney weight (Pregnant CD-1 mice; E11.5, 2 mg/kg/d): 0.54±0.04 % BW
- Relative liver weight (Pregnant CD-1 mice; E11.5, 2 mg/kg/d): 8.1±0.5 % BW
- Greater BW gain (GWG) relative to vehicle controls (Pregnant CD-1 mice; E11.5, 10 mg/kg/d): 7.4%
- Relative kidney weight (Pregnant CD-1 mice; E11.5, 10 mg/kg/d): 0.52±0.11 % BW
- Relative liver weight (Pregnant CD-1 mice; E11.5, 10 mg/kg/d): 10.2±0.7 % BW
- Relative kidney weight (Pregnant CD-1 mice; E17.5, 2 mg/kg/d): 0.37±0.02 % BW
- Relative liver weight (Pregnant CD-1 mice; E17.5, 2 mg/kg/d): 6.3±1.0 % BW
- Relative kidney weight (Pregnant CD-1 mice; E17.5, 10 mg/kg/d): 0.43±0.03 % BW
- Relative liver weight (Pregnant CD-1 mice; E17.5, 10 mg/kg/d): 8.1±0.5 % BW
- Relative GWG, E11.5 estimate (95% CI) (Pregnant CD-1 mice; 2 mg/kg/d): 20.8 (4.7, 36.9) % gain from embryonic day 0.5
- Relative GWG, E17.5 Estimate (95% CI) (Pregnant CD-1 mice; 2 mg/kg/d): 48.7 (10.3, 87.1) % gain from embryonic day 0.5
- Relative GWG, E11.5 estimate (95% CI) (Pregnant CD-1 mice; 10 mg/kg/d): 24.4 (8.1, 40.6) % gain from embryonic day 0.5
- Relative GWG, E17.5 Estimate (95% CI) (Pregnant CD-1 mice; 10 mg/kg/d): 55.3 (16.7, 93.7) % gain from embryonic day 0.5
- Relative GWG, E11.5 Estimate (95% CI) relative to VC (Pregnant CD-1 mice; fourth column (after E17.5 estimate), 2 mg/kg/d): 12.5 ( -0.5, 25.6) % gain from embryonic day 0.5
- Relative GWG, E11.5 Estimate (95% CI) relative to VC (Pregnant CD-1 mice; fourth column (after E17.5 estimate), 10 mg/kg/d, 10 mg/kg/day): 19.1 (5.9, 32.2) % gain from embryonic day 0.5 and 19.1 % gain from embryonic day 0.5
- Relative GWG, E11.5 Estimate (95% CI) relative to VC (Pregnant CD-1 mice; second column, 2 mg/kg/d): 3.5 (-2.5, 9.5) % gain from embryonic day 0.5
- Relative GWG, E11.5 Estimate (95% CI) relative to VC (Pregnant CD-1 mice; second column, 10 mg/kg/d, 10 mg/kg/day): 7.1 (0.9, 13.2) % gain from embryonic day 0.5 and 7.1 % gain from embryonic day 0.5
- Embryo:Placental Weight Ratio, adjusted estimate (95% CI) (embryo–placenta unit; E11.5, 2 mg/kg/d): 1.22 (0.66, 1.78)
- Embryo:Placental Weight Ratio, adjusted estimate (95% CI) (embryo–placenta unit; E11.5, 10 mg/kg/d): 1.08 (0.52, 1.64)
- Embryo:Placental Weight Ratio, adjusted estimate (95% CI) (embryo–placenta unit; E17.5, 2 mg/kg/d): 10.6 (7.5, 13.7)
- Shift in embryo weight (embryo–placenta unit; E17.5, 2 mg/kg/d): -0.009 g
- Embryo:Placental Weight Ratio, adjusted estimate (95% CI) (embryo–placenta unit; E17.5, 10 mg/kg/d): 9.5 (6.4, 12.7)
- Estimated increase in placental weight relative to controls (embryo–placenta unit; E17.5, 10 mg/kg/d): 15.5 mg
- Shift in embryo weight (embryo–placenta unit; E17.5, 10 mg/kg/d): -0.042 g
